The assay deals with recombinant human α2C receptor (Homo sapiens (Human), UniProt P18825). The assay is described as follows: Antagonism against the adrenoreceptor α2C (luminescence, noradrenaline-stimulated CHO cells). The note with it: read-out: IC50 antagonism against the adrenoreceptor α2C; noradrenaline 20 nM; CHO cell line with Gαqi3 and mtOb. The procedure:
Antagonism against the adrenoreceptor α1A was tested using a recombinant human α1A receptor CHO cell line which additionally also recombinantly expresses mtAeq (mitochondrial aequorin). Antagonism against the adrenoreceptor α2A was tested using a recombinant human α2A-Gα16 receptor fusion protein CHO cell line (PerkinElmer Life Sciences) which additionally also recombinantly expresses mtAeq. Antagonism against the adrenoreceptor α2B was tested using a recombinant human α2B receptor CHO cell line (PerkinElmer Life Sciences) which additionally also recombinantly expresses mtAeq. Antagonism against the adrenoreceptor α2C was tested using a recombinant human α2C receptor CHO cell line which additionally also recombinantly expresses a chimaric G protein (Gαqi3) and mtOb (mitochondrial obelin). […]
Luminescence measurements were carried out on white 384-well microtitre plates. […] After 5 minutes, noradrenaline was added to the cells (35 μl; final concentrations: 20 nM (α1a/c and α2C) or 200 nM (α2A and α2B)), and the emitted light was measured for 50 seconds using a CCD (charge-coupled device) camera (Hamamatsu Corporation, Shizuoka, Japan) in a light-tight box. […] The IC50 values were calculated from the appropriate dose-response curves.

Chains of the proteins cited; added tags and fusions are not shown.
UniProt P18825, whole entry: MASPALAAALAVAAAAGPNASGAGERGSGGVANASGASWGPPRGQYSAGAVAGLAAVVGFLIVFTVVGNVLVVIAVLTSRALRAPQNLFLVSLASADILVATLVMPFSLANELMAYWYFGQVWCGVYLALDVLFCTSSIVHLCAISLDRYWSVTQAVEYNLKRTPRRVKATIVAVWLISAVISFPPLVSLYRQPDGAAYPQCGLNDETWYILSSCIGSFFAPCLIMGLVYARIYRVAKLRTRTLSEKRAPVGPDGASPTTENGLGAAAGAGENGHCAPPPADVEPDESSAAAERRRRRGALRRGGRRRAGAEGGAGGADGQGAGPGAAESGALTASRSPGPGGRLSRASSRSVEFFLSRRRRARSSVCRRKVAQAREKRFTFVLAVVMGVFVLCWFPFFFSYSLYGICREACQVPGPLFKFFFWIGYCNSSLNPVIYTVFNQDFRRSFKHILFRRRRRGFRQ

With `CCC(COC)Nc1ncc(C(=O)N2CCC(N3CCc4cc(F)ccc4C3)CC2)cn1` (stereo not shown), the IC50 worked out at 24 nM.
